# In US20180338964A1, “3-(PIPERIDIN-4-YL)-ISOXAZOL-3(OH)-ONES FOR TREATMENT OF DERMATOLOGIC DISORDERS” (Emeriti Pharma AB, priority 2014, published 2018):
# System: fibrinolysis in human plasma clot (tPA activation of plasminogen)
# Conditions: citrated platelet poor human plasma, tPA 80 ng/ml, 37° C.
smiles,measurement,setting,value
"CC(C)(C)C[C@H]1C[C@@H](c2cc(=O)[nH]o2)CCN1 [5-[(2R,4S)-2-(2,2-dimethylpropyl)piperidin-4-yl]-2,3-dihydro-1,2-oxazol-3-one]",IC50,read-out: IC50 (clot-lysis time prolonged to twice the vehicle value),940 nM
same,IC90,read-out: IC90 (clot-lysis time prolonged to nine times the vehicle value),3260 nM
